How the values were obtained:
[1] = serum levels of calcium and phosphate in rats treated with vitamin D plus warfarin; format: in vivo, rat; settings: 0.25 mg P/kg/day; 84 h
[2] = weight, tibia length and serum calcium and phosphate in warfarin-treated rats; format: in vivo, rat; settings: 0.025 mg P/kg/day plus warfarin, 4 weeks

For NCCCC(O)(P(=O)(O)O)P(=O)(O)O [Alendronate, (4-amino-1-hydroxybutylidene)bis-phosphonate], the “Serum Ca” value [1] was 14.5 ± 0.1 mg/dL and the Ending wt [2] was 301 ± 8 gm.

From patent US6812034B2, “Fetuin-MGP-mineral complex in serum assayed to determine calcification risk” (The Regents of the University of California, priority 2000, dated 2004)
